Broadly, the koff is the rate constant with which the complex falls apart. The low end stands for a long-lived complex, the high end for a short-lived complex.

In test [1] the target is actin (5% Alexa488-labeled) (UniProt P68135). The test is described as follows: TIRF microscopy of single actin filaments (barbed end pause times); 1 µM actin (5% Alexa488-labeled), 2.5 µM talin construct with 5 µM V1ab4, 100 mM KCl, 5 mM Tris pH 7.8; exponential fit of the pause times.
Test [2] shares this target. The test is described as follows: TIRF microscopy of single actin filaments (barbed end pause times); 1 µM actin (5% Alexa488-labeled), 2.5 µM talin construct with 5 µM V1ab4, 25 mM KCl, 5 mM Tris pH 7.8; exponential fit of the pause times.

With “TΔ1ΔAI-V_(1ab4) complex, Q9Y490 1-2541; P18206-2 1-1066”, in test [1], the koff turned out to be 0.006 s⁻¹ and the t1/2 of barbed end pauses amounted to 1.93 min. In test [2], this substance returned a koff of 0.0056 s⁻¹ and a t1/2 of barbed end pauses of 2.07 min.

With “TΔ1ΔAIΔABD2-V_(1ab4) complex, Q9Y490 1-2541; P18206-2 1-1066”, in test [2], the koff worked out at 0.007 s⁻¹ and the t1/2 of barbed end pauses is 1.66 min.
